1 substance from patent US11278555B2, “Combinational therapies for treatment of cancer comprising a bacteriochlorophyll derivative” (Yeda Research and Development Co. Ltd., priority 2016, dated 2022) can be followed below.

Series [1] has as its system splenic immune cells of 4T1-bearing mice. Put plainly: FACS profile of splenic immune cell populations in 4T1-bearing mice after STL-6014 PDT and Gemzar. Type of series: in vivo. To be noted: second week post treatment. How it is done:
Concentration was verified by spectrophotometric measurement. STL-7012 was provided as dipotassium salt. […] For mammary tumor treatment: Mice were anesthetized as before. […] Control groups received 0.9% NaCl. […] Following excision mice were euthanized.
FIG. 12 presents the treatment impact of STL-6014-PDT combined with Gemzar administration on the immune cell profile in spleen of 4T1-bearing mice. The profile of splenic cell populations was assessed following 3 treatment regimens: STL-6014 PDT, STL-6014 PDT with Gemzar (starting 2 days before PDT), and Gemzar alone. Treated groups were compared to tumor-bearing controls. Animals with good treatment responses (as judged by primary tumor ablation at 1, 2, and 3 weeks post-treatment) were taken for analysis. […] But the effect of the combined treatment modality appeared much stronger. […] The sustainability of the combined therapy on the MDSC profile nicely correlates with the time required for the evolution of adaptive immunity (Fisher et al., 2017; Nowak et al., 2003; Pitt et al., 2016).

The subject of series [2] is orthotopic 4T1-Luc breast tumors. Put plainly: Whole-body NIR fluorescence imaging of accumulation and clearance in 4T1 tumor bearing mice. The procedure:
• (i) Bacteriochlorophyll Derivatives—The Bchl derivatives and RGD-conjugates thereof were provided by Steba Biotech (Rehovot, Israel). […] Concentration was verified by spectrophotometric measurement. STL-7012 was provided as dipotassium salt. Working solution was prepared by dissolving STL-7012 K^+ salt in 5% mannitol solution (1 mg/ml). […] WST11 was supplied as a powder and kept in the dark at −20° C. Stock was prepared by dissolving WST11 in DDW containing 5% glucose and 0.67% mannitol, aliquoted and lyophilized. Working solution was reconstituted with DDW and the concentration of solution was confirmed spectrophotometrically. Alternatively, Clinical WST11 (batch: P00611, and 10-130611) was supplied as lyophilized formulation. Material was dissolved in 5% dextrose, aliquoted and stored at −20° C. […] Aliquots were thawed, diluted with saline to a desired concentration and used on the same day at a dose of 75 mg/kg. Cyclophosphamide (CTX, Endoxan®, Baxter Oncology Gmbh, Germany) was purchased from a local pharmacy. A stock solution of 20 mg/ml was prepared by dissolving in 0.9% NaCl, aliquoted and stored at −20° C. Aliquots were thawed, diluted with saline if needed to a desired concentration and used on the same day prepared at indicated doses. • (iii) Murine cell lines—Mammary luciferase (luc)-labeled 4T1 cell line (4T1-Luc) was a kind gift from Dr. Zvi Granot (Faculty of Medicine, The Hebrew University of Jerusalem, Israel); melanoma B16-F10 cell line was obtained from the American Type Culture Collection (ATCC, Manassas, Va.); bladder MB49 cell line was a kind gift from James Allison (MSKCC, New York, USA), and luc-labeled MB49-cell line was established using the murine stem cell virus (MSCV)-puromycin-luc-GFP construct (kindly provided by Dr. Emily Cheng, Human Oncology and Pathogenesis Program, MSKCC). 4T1 and MB49 cells were maintained in DMEM medium and B16-F10 cells in RPMI medium supplemented with 1 mmol/L sodium pyruvate, 10% fetal calf serum (FCS), 250 μg/ml hygromycin, 0.06 mg/ml penicillin and 0.1 mg/ml streptomycin. […]

For the substance “3^1-oxo-15-methoxycarbonylmethyl-Rhodobacteriochlorin 13^1-(2-sulfoethyl)amide-17^3-(cycloRGDfK) amide potassium salt [STL-6014]”, in series [1], the “impact on MDSCs in spleen relative to control” value is reported as “highly significant”. The “time after administration at which the tumor became evident” value in series [2] (i.v. 7.5 mg/kg) is ~2 h. For the same substance, the “accumulation in the tumor (NIR fluorescence)” value in series [2] (i.v., STL-6014 7.5 mg/kg, STL-7012 9.5 mg/kg) is “selective accumulation in the tumor”. The “accumulation in the tumor relative to surrounding tissues” value in series [2] (on the day after administration) is “markedly accumulated in the tumor”.
